Results on 25 compounds are retold here after US20250195521A1 (Revolution Medicines, Inc., priority 2020, published 2025).

By UniProt entry, the sequences of proteins in these tests, tags left out. Where a name states a change or a piece, a line headed by the entry shows the natural chain unless it says otherwise. Chains listed by the source or under a name are the forms on record and can include a tag or linker. Residues count along the entry.
UniProt P01116, 1-164 with tags or gaps G12C limits assumed: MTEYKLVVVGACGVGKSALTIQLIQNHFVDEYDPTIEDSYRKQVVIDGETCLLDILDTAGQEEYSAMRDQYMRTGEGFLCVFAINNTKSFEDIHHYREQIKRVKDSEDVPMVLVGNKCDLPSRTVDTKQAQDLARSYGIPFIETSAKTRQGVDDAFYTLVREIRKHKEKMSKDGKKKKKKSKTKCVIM
UniProt P01116, 1-164 with tags or gaps G12D limits assumed: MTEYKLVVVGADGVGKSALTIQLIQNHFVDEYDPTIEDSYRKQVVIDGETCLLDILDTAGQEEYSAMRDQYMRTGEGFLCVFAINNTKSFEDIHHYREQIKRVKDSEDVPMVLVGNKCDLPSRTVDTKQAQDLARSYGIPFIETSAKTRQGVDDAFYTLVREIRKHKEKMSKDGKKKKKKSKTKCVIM
UniProt P01116, 1-164 with tags or gaps G12S limits assumed: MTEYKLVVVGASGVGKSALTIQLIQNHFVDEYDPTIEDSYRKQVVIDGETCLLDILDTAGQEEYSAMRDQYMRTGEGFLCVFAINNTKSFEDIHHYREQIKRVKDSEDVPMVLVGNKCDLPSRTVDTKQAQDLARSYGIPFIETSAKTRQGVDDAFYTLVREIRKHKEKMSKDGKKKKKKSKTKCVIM
UniProt P01116, 1-164 with tags or gaps G12V limits assumed: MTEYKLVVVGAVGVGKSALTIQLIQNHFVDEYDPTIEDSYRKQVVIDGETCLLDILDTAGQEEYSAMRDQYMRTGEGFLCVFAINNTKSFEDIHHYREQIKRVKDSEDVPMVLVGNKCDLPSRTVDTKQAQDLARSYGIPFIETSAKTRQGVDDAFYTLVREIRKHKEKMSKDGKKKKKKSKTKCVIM
UniProt P01116, 1-164 with tags or gaps G13C limits assumed: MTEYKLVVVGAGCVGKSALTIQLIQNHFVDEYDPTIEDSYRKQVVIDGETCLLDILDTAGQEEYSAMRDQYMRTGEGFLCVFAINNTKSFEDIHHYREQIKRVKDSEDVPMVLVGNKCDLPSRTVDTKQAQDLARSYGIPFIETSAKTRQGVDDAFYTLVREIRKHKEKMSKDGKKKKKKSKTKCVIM
UniProt P01116, 1-164 with tags or gaps G13D limits assumed: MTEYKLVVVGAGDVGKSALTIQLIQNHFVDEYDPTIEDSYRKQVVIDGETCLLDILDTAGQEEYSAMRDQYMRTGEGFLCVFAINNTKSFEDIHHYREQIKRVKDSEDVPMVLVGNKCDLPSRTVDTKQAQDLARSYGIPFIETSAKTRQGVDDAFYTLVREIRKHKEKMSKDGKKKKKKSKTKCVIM
UniProt P62937, whole entry, stated change not applied: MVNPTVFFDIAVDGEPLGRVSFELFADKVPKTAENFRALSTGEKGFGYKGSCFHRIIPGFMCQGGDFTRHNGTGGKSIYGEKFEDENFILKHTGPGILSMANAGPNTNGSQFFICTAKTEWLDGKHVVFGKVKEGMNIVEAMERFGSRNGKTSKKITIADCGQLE

The target of test [1] is K-Ras G12C(GMP-PNP) binding to BRAF RBD (Homo sapiens (Human), UniProt P01116+P62937, G12C). The test is described as follows: Disruption of BRAF RBD interaction with K-Ras (FRET / MOA assay), K-Ras G12C. As to conditions: read-out: KRAS G12C FRET IC50. In kind it is biochemical.
For test [2], the system named is AsPC-1 (K-Ras G12D). Description: CellTiter-Glo cell viability assay, AsPC-1. In kind it is cell-based, human. Particulars: read-out: AsPC-1 Cell Viability IC50, 5-day treatment.
The target in test [3] is KRAS G13D (Homo sapiens (Human), UniProt P01116+P62937, G13D). Description: Ras-Raf disruption/FRET/MOA assay, KRAS G13D. As to conditions: read-out: KRAS G13D FRET IC50. In kind it is biochemical.
Test [4] has as its target KRAS G12V (Homo sapiens (Human), UniProt P01116+P62937, G12V). Description: Ras-Raf disruption/FRET/MOA assay, KRAS G12V. Particulars: read-out: KRAS G12V FRET IC50. It is filed as biochemical.
The target of test [5] is KRAS G13C (Homo sapiens (Human), UniProt P01116+P62937, G13C). Description: Ras-Raf disruption/FRET/MOA assay, KRAS G13C. It is filed as biochemical. As to conditions: read-out: KRAS G13C FRET IC50.
The target of test [6] is KRAS G12S (Homo sapiens (Human), UniProt P01116+P62937, G12S). Description: Ras-Raf disruption/FRET/MOA assay, KRAS G12S. In kind it is biochemical. As to conditions: read-out: KRAS G12S FRET IC50.
Test [7] has as its target KRAS G12D (Homo sapiens (Human), UniProt P01116+P62937, G12D). Description: Ras-Raf disruption/FRET/MOA assay, KRAS G12D. It is filed as biochemical. Particulars: read-out: KRAS G12D FRET IC50.
In test [8] the test system is NCI-H358 (K-Ras G12C). The test is described as follows: CellTiter-Glo cell viability assay, H358. Particulars: read-out: H358 Cell Viability IC50, 5-day treatment. It is filed as cell-based, human.
Test [9] deals with K-Ras G12C (NCI-H358 cells). Description: Potency assay: pERK in NCI-H358 cells. It is filed as cell-based, human. As to conditions: read-out: pERK EC50 (H358 KRAS G12C); NCI-H358 cells, 4 hours.

A value given as a limit tells only on which side of the number the result lay.

For `C=CC(=O)N1CC[C@H](C(=O)N(C)[C@H](C(=O)N[C@H]2Cc3cc(OC(=O)NCN4CCN(C)CC4)cc(c3)-c3ccc4c(c3)c(c(-c3ccccc3CCOC)n4CC)CC(C)(C)COC(=O)[C@@H]3CCCN(N3)C2=O)C(C)C)C1`, the IC50 in test [1] fell in the range of 100 to 1000 nM.

In the case of `C=CC(=O)N1CC[C@H](C(=O)N(C)[C@H](C(=O)N[C@H]2Cc3cc(N)cc(c3)-c3ccc4c(c3)c(c(C3=C(COC)CCCC3)n4CC)CC(C)(C)COC(=O)[C@@H]3CCCN(N3)C2=O)C(C)C)C1`, the IC50 in test [1] was in the range of 10 to 100 nM.

Take `C=CC(=O)N1CC[C@H](C(=O)N(C)[C@H](C(=O)N[C@H]2Cc3cc(O)cc(c3)-c3ccc4c(c3)c(c(-c3cccnc3COC)n4C)CC(C)(C)COC(=O)[C@@H]3CCCN(N3)C2=O)C(C)C)C1`: the IC50 in test [1] lay in the range of 100 to 1000 nM.

For `CCn1c(-c2cccnc2[C@H](C)OC)c2c3cc(ccc31)-c1cc(O)cc(c1)C[C@H](NC(=O)[C@H](C(C)C)N(C)C(=O)CN(C)C(=O)[C@H]1CN1)C(=O)N1CCC[C@H](N1)C(=O)OCC(C)(C)C2` [42 B], the IC50 in [2] lay in the range of 1000 to 10000 nM; in test [3] it was 1000 to 10000 nM; in test [4], 1000 to 10000 nM; in [5], 100 to 1000 nM; in test [6], 1000 to 10000 nM; in test [7], 1000 to 10000 nM. Also, in test [8], the IC50 fell in the range of 10 to 100 nM.

In the case of `C=CC(=O)N1CC[C@H](C(=O)N(C)[C@H](C(=O)N[C@H]2Cc3cc(OC(C)=O)cc(c3)-c3ccc4c(c3)c(c(-c3ccccc3CN(C)C)n4CC)CC(C)(C)COC(=O)[C@@H]3CCCN(N3)C2=O)C(C)C)C1`, the IC50 in test [1] lay within 1000 to 10000 nM.

Regarding `C=CC(=O)N1CC(OC[C@H](C(=O)N[C@H]2Cc3cc(F)cc(c3)-c3ccc4c(c3)c(c(-c3cccnc3[C@H](C)OC)n4CC(F)(F)F)CC(C)(C)COC(=O)[C@@H]3CCCN(N3)C2=O)C(C)C)C1`, the EC50 in test [9] was below 5000 nM.

Regarding `C=CC(=O)N1CC[C@H](C(=O)N(C)[C@H](C(=O)N[C@H]2Cc3cc(O)cc(c3)-c3ccc4c(c3)c(c(-c3ccc5c(c3)OCCN5C)n4CC)CC(C)(C)COC(=O)[C@@H]3CCCN(N3)C2=O)C(C)C)C1`, the IC50 in test [1] lay in the range of 100 to 1000 nM.

As for `CO[C@@H](C)c1ncccc1-c1c2c3cc(ccc3n1CC(F)(F)F)-c1cccc(c1)C[C@H](NC(=O)[C@@H](COC1CN(C(=O)C#CC3(C)OCCO3)C1)C(C)C)C(=O)N1CCC[C@H](N1)C(=O)OCC(C)(C)C2`, the EC50 in [9] is below 5000 nM.

Regarding `C=CC(=O)N1CC[C@H](C(=O)N(C)[C@H](C(=O)N[C@H]2Cc3cccc(c3)-c3ccc4c(c3)c(c(-c3cccnc3COC)n4CC)CC(C)(C)COC(=O)[C@@H]3CCCN(N3)C2=O)C(C)C)C1`, the IC50 in test [1] lay in the range of 100 to 1000 nM.

Take `C=CC(=O)N1CC[C@H](C(=O)N(C)[C@H](C(=O)N[C@H]2Cc3cc(O)cc(c3)-c3ccc4c(c3)c(c(-c3ccc(CN(C)C)nc3)n4CC)CC(C)(C)COC(=O)[C@@H]3CCCN(N3)C2=O)C(C)C)C1` [Compound A3]: the IC50 in test [1] was 100 to 1000 nM.

`C=CC(=O)N1CC[C@H](C(=O)N(C)[C@H](C(=O)N[C@H]2Cc3cc(O)cc(c3)-c3ccc4c(c3)c(c(-c3ccc5c(c3)CCN(C)C5)n4CC)CC(C)(C)COC(=O)[C@@H]3CCCN(N3)C2=O)C(C)C)C1` [Compound A40]: the IC50 in test [1] was in the range of 100 to 1000 nM.

With `C=CC(=O)N1C[C@H](C)[C@H](C(=O)N(C)[C@H](C(=O)N[C@H]2Cc3cc(O)cc(c3)-c3ccc4c(c3)c(c(-c3cccnc3COC)n4CC)CC(C)(C)COC(=O)[C@@H]3CCCN(N3)C2=O)C2CCCC2)C1`, in test [1], the IC50 lay within 10 to 100 nM.

For the compound `C=CC(=O)N1C[C@H](C)[C@H](C(=O)N(C)[C@H](C(=O)N[C@H]2Cc3cc(O)cc(c3)-c3ccc4c(c3)c(c(-c3cccnc3COC)n4CC)CC(C)(C)COC(=O)[C@@H]3CCCN(N3)C2=O)C(C)C)C1`, the half-maximal inhibitory concentration (IC50) in [1] lay in the range of 10 to 100 nM.

Take `C=CC(=O)N1CC[C@H](C(=O)N(C)[C@H](C(=O)N[C@H]2Cc3cc(N)cc(c3)-c3ccc4c(c3)c(c(-c3ccccc3COC)n4CC)CC(C)(C)COC(=O)[C@@H]3CCCN(N3)C2=O)C(C)C)C1` [A002]: the IC50 in test [1] lay in the range of 1000 to 10000 nM.

As for `CCn1c(-c2cccnc2[C@H](C)OC)c2c3cc(ccc31)-c1cc(O)cc(c1)C[C@H](NC(=O)[C@H](C(C)C)N(C)C(=O)CN(C)C(=O)[C@H]1CN1)C(=O)N1CCC[C@H](N1)C(=O)OCC(C)(C)C2` [42 A], the 50% inhibitory concentration (IC50) in test [2] is 100 to 1000 nM; in [3], 10 to 100 nM; in [4], 10 to 100 nM; in test [5] it was below 10 nM; in test [6], 10 to 100 nM; in test [7], 10 to 100 nM. Also, the IC50 in test [8] is below 10 nM.

For the compound `C=CC(=O)N1C[C@H](C)[C@H](C(=O)N(C)[C@H](C(=O)N[C@H]2Cc3cc(O)cc(c3)-c3ccc4c(c3)c(c(-c3ccccc3CN(C)C)n4CC)CC(C)(C)COC(=O)[C@@H]3CCCN(N3)C2=O)C2CCCC2)C1`, in test [1], the IC50 lay in the range of 10 to 100 nM.

Turning to `C=CC(=O)N1CC[C@H](C(=O)N(C)[C@H](C(=O)N[C@H]2Cc3cc(O)cc(c3)-c3ccc4c(c3)c(c(-c3ncccc3COC)n4CC)CC(C)(C)COC(=O)[C@@H]3CCCN(N3)C2=O)C(C)C)C1` [A016], in test [1], the concentration for half-maximal inhibition (IC50) is 10 to 100 nM.

As for `C=CC(=O)N1CC[C@H](C(=O)N(C)[C@H](C(=O)N[C@H]2Cc3cc(O)cc(c3)-c3ccc4c(c3)c(c(-c3cncc(C#N)c3)n4CC)CC(C)(C)COC(=O)[C@@H]3CCCN(N3)C2=O)C(C)C)C1`, in [1], the IC50 fell in the range of 100 to 1000 nM.

For the compound `CCn1c(-c2cccnc2[C@@H](C)OC)c2c3cc(ccc31)-c1cc(O)cc(c1)C[C@H](NC(=O)[C@H](C(C)C)N(C)C(=O)[C@H]1CCN(C(=O)[C@H]3CN3)C1)C(=O)N1CCC[C@H](N1)C(=O)OCC(C)(C)C2` (atropisomer, axis not shown) [Example 43B], the IC50 in [2] was above 10000 nM; in [3], 1000 to 10000 nM; in test [4] it was 1000 to 10000 nM; in test [5], 1000 to 10000 nM; in [6], 1000 to 10000 nM; in [7], 1000 to 10000 nM. For the same compound, the IC50 in test [8] fell in the range of 10 to 100 nM.

As to `C=CC(=O)N1CC[C@H](C(=O)N(C)[C@H](C(=O)N[C@H]2Cc3cc(O)cc(c3)-c3ccc4c(c3)c(c(-c3ncccc3COC)n4CC)CC(C)(C)COC(=O)[C@@H]3CCCN(N3)C2=O)C(C)C)C1` [A084], the IC50 in test [1] was in the range of 1000 to 10000 nM.

With `C=CC(=O)N1CC[C@H](C(=O)N(C)[C@H](C(=O)N[C@H]2Cc3cc(O)cc(c3)-c3ccc4c(c3)c(c(-c3ncccc3CN(C)C)n4CC)CC(C)(C)COC(=O)[C@@H]3CCCN(N3)C2=O)C(C)C)C1`, in test [1], the IC50 is 10 to 100 nM.

As for `CCn1c(-c2ccccc2CN(C)C)c2c3cc(ccc31)-c1cc(O)cc(c1)C[C@H](NC(=O)[C@H](C(C)C)N(C)C(=O)c1ccc(NC(=O)/C=C/CN(C)C)cc1)C(=O)N1CCC[C@H](N1)C(=O)OCC(C)(C)C2`, in test [1], the IC50 lay in the range of 1000 to 10000 nM.

As for `CCn1c(-c2cccnc2[C@H](C)OC)c2c3cc(ccc31)-c1cc(O)cc(c1)C[C@H](NC(=O)[C@H](C(C)C)N(C)C(=O)[C@H]1CCN(C(=O)[C@H]3CN3)C1)C(=O)N1CCC[C@H](N1)C(=O)OCC(C)(C)C2`, the IC50 in test [2] lay in the range of 100 to 1000 nM; in test [3], 10 to 100 nM; in test [4] it was 10 to 100 nM; in [5] it was 10 to 100 nM; in [6], 10 to 100 nM; in test [7], 10 to 100 nM. The IC50 in test [8] is below 10 nM.

With `CCn1c(-c2ccccc2COC)c2c3cc(ccc31)-c1cc(O)cc(c1)C[C@H](NC(=O)[C@H](C(C)C)N(C)C(=O)[C@H]1CCN(C(=O)/C=C/CN(C)C)C1)C(=O)N1CCC[C@H](N1)C(=O)OCC(C)(C)C2` [Compound A79], the IC50 in [1] is 10 to 100 nM.

On to `C=CC(=O)N1CC(C(=O)N(C)[C@H](C(=O)N[C@H]2Cc3cc(O)cc(c3)-c3ccc4c(c3)c(c(-c3cccnc3COC)n4CC)CC(C)(C)COC(=O)[C@@H]3CCCN(N3)C2=O)C(C)C)C1`, for which the IC50 in test [1] lay in the range of 10 to 100 nM.

The IC50 is the concentration needed to halve the response being measured. One may read the EC50 as the concentration that produces a half-maximal response.
